Measured values published in ChEMBL document CHEMBL3885861, “Open TG-GATES”.

What was measured:
[1] = species: Rattus norvegicus; experiment: Open TG-GATES - Regimen: Single; type: toxicity, organism-based, Sprague-Dawley; design: regimen Single, gender Male, age 6 weeks; settings: in vivo, po, route gavage; for A/G: tissue Plasma
[2] = species: Rattus norvegicus; experiment: Open TG-GATES - Regimen: Daily Repeat; type: toxicity, organism-based, Sprague-Dawley; design: regimen Daily Repeat, gender Male, age 6 weeks; settings: in vivo, po, route gavage; for A/G: tissue Plasma
[3] = 0 mg/kg, 3 h, dose level Control
[4] = 0 mg/kg, 6 h, dose level Control
[5] = 0 mg/kg, 9 h, dose level Control
[6] = 0 mg/kg, 24 h, dose level Control
[7] = 0 mg/kg, 72 h, tissue Blood, dose level Control, time 3 day
[8] = 0 mg/kg, […], tissue Blood, dose level Control, time 7 day
[9] = 300 mg/kg, 24 h, tissue Blood, dose level Middle
[10] = 1000 mg/kg, 24 h, tissue Blood, dose level High
[11] = 0 mg/kg, […], tissue Blood, dose level Control, time 28 day
[12] = 300 mg/kg, 72 h, tissue Blood, dose level Middle, time 3 day
[13] = 300 mg/kg, […], tissue Blood, dose level Middle, time 14 day
[14] = 300 mg/kg, […], tissue Blood, dose level Middle, time 28 day
[15] = 1000 mg/kg, […], tissue Blood, dose level High, time 14 day
[16] = 1000 mg/kg, […], tissue Blood, dose level High, time 28 day

## O=C(CCCN1CCC(O)(c2ccc(Cl)cc2)CC1)c1ccc(F)cc1 [HALOPERIDOL]
[1]; [3]
  A/G: 2
[1]; [4]
  A/G: 2
[1]; [5]
  A/G: 2.3
[1]; [6]
  A/G: 1.9
[1]; 3 mg/kg, 3 h, tissue Blood, dose level Low
  PT: 12.5 s
[1]; 3 mg/kg, 3 h, dose level Low
  A/G: 1.8
[1]; 3 mg/kg, 6 h, dose level Low
  A/G: 1.9
[1]; 3 mg/kg, 9 h, tissue Blood, dose level Low
  PT: 12.5 s
[1]; 3 mg/kg, 9 h, dose level Low
  A/G: 1.9
[1]; 3 mg/kg, 24 h, dose level Low
  A/G: 1.8
[1]; 10 mg/kg, 3 h, dose level Middle
  A/G: 1.8
[1]; 10 mg/kg, 6 h, dose level Middle
  A/G: 1.9
[1]; 10 mg/kg, 9 h, dose level Middle
  A/G: 2
[1]; 10 mg/kg, 24 h, tissue Blood, dose level Middle
  MCV: 65.5 fL
[1]; 10 mg/kg, 24 h, dose level Middle
  A/G: 1.9
[1]; 30 mg/kg, 3 h, dose level High
  A/G: 1.9
[1]; 30 mg/kg, 6 h, dose level High
  A/G: 1.9
[1]; 30 mg/kg, 9 h, dose level High
  A/G: 2.3
[1]; 30 mg/kg, 24 h, dose level High
  A/G: 2.1
[2]; [7]
  MCV: 64.9 fL
[2]; 0 mg/kg, 72 h, dose level Control, time 3 day
  A/G: 2
[2]; [8]
  WBC: 82.7 x10_2/uL
[2]; 0 mg/kg, […], dose level Control, time 7 day
  A/G: 2
[2]; 0 mg/kg, […], dose level Control, time 14 day
  A/G: 1.7
[2]; 0 mg/kg, […], dose level Control, time 28 day
  A/G: 1.7
[2]; 3 mg/kg, 72 h, dose level Low, time 3 day
  A/G: 2
[2]; 3 mg/kg, […], dose level Low, time 7 day
  A/G: 1.9
[2]; 3 mg/kg, […], dose level Low, time 14 day
  A/G: 1.8
[2]; 3 mg/kg, […], dose level Low, time 28 day
  A/G: 1.6
[2]; 10 mg/kg, 72 h, dose level Middle, time 3 day
  A/G: 2.2
[2]; 10 mg/kg, […], tissue Blood, dose level Middle, time 28 day
  PT: 12.5 s
[2]; 10 mg/kg, […], dose level Middle, time 7 day
  A/G: 1.8
[2]; 10 mg/kg, […], dose level Middle, time 14 day
  A/G: 1.8
[2]; 10 mg/kg, […], dose level Middle, time 28 day
  A/G: 1.7
[2]; 30 mg/kg, 72 h, dose level High, time 3 day
  A/G: 2.4
[2]; 30 mg/kg, […], dose level High, time 7 day
  A/G: 2
[2]; 30 mg/kg, […], dose level High, time 14 day
  A/G: 1.8
[2]; 30 mg/kg, […], dose level High, time 28 day
  A/G: 1.7

## O=C(O)c1cccnc1 [NIACIN]
[1]; [3]
  TERMINAL_BW: 210.3 g
[1]; [4]
  TERMINAL_BW: 207.1 g
[1]; 0 mg/kg, 6 h, tissue Blood, dose level Control
  APTT: 21.8 s
[1]; [5]
  TERMINAL_BW: 212.6 g
[1]; 0 mg/kg, 9 h, tissue Blood, dose level Control
  APTT: 21.8 s
[1]; [6]
  TERMINAL_BW: 222.2 g
[1]; 0 mg/kg, 24 h, tissue Blood, dose level Control
  MCH: 21.3 pg
[1]; 100 mg/kg, 3 h, dose level Low
  TERMINAL_BW: 216.6 g
[1]; 100 mg/kg, 6 h, dose level Low
  TERMINAL_BW: 209.3 g
[1]; 100 mg/kg, 6 h, tissue Blood, dose level Low
  MCH: 21.3 pg
[1]; 100 mg/kg, 9 h, dose level Low
  TERMINAL_BW: 209.2 g
[1]; 100 mg/kg, 9 h, tissue Blood, dose level Low
  MCH: 21.8 pg
[1]; 100 mg/kg, 24 h, dose level Low
  TERMINAL_BW: 224.3 g
[1]; 100 mg/kg, 24 h, tissue Blood, dose level Low
  MCH: 21.8 pg
[1]; 300 mg/kg, 3 h, dose level Middle
  TERMINAL_BW: 216.2 g
[1]; 300 mg/kg, 3 h, tissue Blood, dose level Middle
  APTT: 22.3 s
[1]; 300 mg/kg, 6 h, dose level Middle
  TERMINAL_BW: 206.9 g
[1]; 300 mg/kg, 6 h, tissue Blood, dose level Middle
  APTT: 21.6 s
[1]; 300 mg/kg, 9 h, dose level Middle
  TERMINAL_BW: 207 g
[1]; 300 mg/kg, 24 h, dose level Middle
  TERMINAL_BW: 222.4 g
[1]; [9]
  APTT: 23.2 s
  MCH: 21.4 pg
[1]; 1000 mg/kg, 3 h, dose level High
  TERMINAL_BW: 215.5 g
[1]; 1000 mg/kg, 6 h, dose level High
  TERMINAL_BW: 209.3 g
[1]; 1000 mg/kg, 9 h, dose level High
  TERMINAL_BW: 206.9 g
[1]; 1000 mg/kg, 9 h, tissue Blood, dose level High
  MCH: 20.5 pg
[1]; 1000 mg/kg, 24 h, dose level High
  TERMINAL_BW: 229.2 g
[1]; [10]
  APTT: 21.3 s
  MCH: 21.1 pg
[2]; [7]
  APTT: 20.9 s
  MCH: 20.9 pg
[2]; [8]
  APTT: 23.2 s
[2]; 0 mg/kg, […], tissue Blood, dose level Control, time 14 day
  APTT: 22.9 s
[2]; [11]
  APTT: 24.4 s
  MCH: 19.9 pg
[2]; 100 mg/kg, 72 h, tissue Blood, dose level Low, time 3 day
  APTT: 21.6 s
[2]; 100 mg/kg, […], tissue Blood, dose level Low, time 7 day
  APTT: 21.3 s
[2]; 100 mg/kg, […], tissue Blood, dose level Low, time 28 day
  MCH: 19.8 pg
[2]; [12]
  APTT: 21.6 s
  MCH: 20.9 pg
[2]; [13]
  APTT: 23.5 s
  MCH: 20.2 pg
[2]; [14]
  APTT: 24.4 s
  MCH: 19.7 pg
[2]; 1000 mg/kg, 72 h, tissue Blood, dose level High, time 3 day
  MCH: 20.9 pg
[2]; [15]
  APTT: 22.1 s
  MCH: 20.4 pg
[2]; [16]
  APTT: 23.8 s
  MCH: 19.8 pg
